This is a selection; strong and weak results do not stand in their true shares. Results filed as inconclusive are left out. Active and inactive are the calls of the source. Rule as the data show it: inconclusive = inhibition above about 70% without an active follow-up result; inactive = below that.
Assay: M. tuberculosis growth inhibition, HTS (AID 449762);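 also: bacterial growth assessed after seven days of incubation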
Settings: M. tuberculosis H37Rv growth inhibition, 7H9 media; at 25 µM; active compounds read high
With `CCC(=O)N(c1ccccc1)C1(COC)CCN(CCn2nnn(CC)c2=O)CC1` the inhibition was inactive: -2.84%.
For `CCC(=O)N(c1ccccc1)C1(COC)CCN(CCc2cccs2)CC1`, the inhibition was inactive: 0.87%.

From PubChem BioAssay AID449762 (Southern Research Specialized Biocontainment Screening …, 2010)
